Literature values, collected in patent US20210106574A1, “Methods of Treating Cancer” (Tesaro, Inc., priority 2017, published 2021).

How the values were obtained:
[1] = tested on: cancer cell lines silenced for or carrying mutations of BRCA-1 or BRCA-2; Ewing's sarcoma, ALL, NSCLC, SCLC and ATM-inactivated tumor cell lines; details: selected Ewing's sarcoma, SCLC cell lines and tumor cell lines with homozygous inactivation of ATM; cited from earlier work
[2] = tested on: normal human cells; details: cited from earlier work

For `Cc1ccc(S(=O)(=O)O)cc1.NC(=O)c1cccc2cn(-c3ccc([C@@H]4CCCNC4)cc3)nc12` [Niraparib, (3S)-3-[4-{7-(aminocarbonyl)-2H-indazol-2-yl}phenyl]piperidine], which cytotoxicity [1] is on record?
The cytotoxicity was “selectively cytotoxic”.

And the “activity on normal human cells” value [2]?
Its value is “weak activity”.
